Reference: PMC2363545 (British Journal of Cancer, 2000)

Sequences of proteins named here, by UniProt entry; tags and fusion partners are left off. Residues count along the entry.
UniProt P01344, 25-180: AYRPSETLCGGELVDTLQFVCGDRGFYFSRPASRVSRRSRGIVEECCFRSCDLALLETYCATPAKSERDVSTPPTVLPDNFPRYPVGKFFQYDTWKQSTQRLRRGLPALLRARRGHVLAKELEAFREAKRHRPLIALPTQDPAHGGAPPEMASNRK

Key:
[1] = tested on: B16 murine melanoma cells
IGF-II = IGF-II (Homo sapiens, UniProt P01344)
[2] = tested on: premature ovarian failure; settings: in vivo

Ro 31-8220
effect on -MSH-induced melanogenesis [1]: significantly (P<0.05) inhibit

Insulin
binding to IGF2R constructs (IGF-II): did not bind

goserelin
patients with biochemical evidence of premature ovarian failure [2]: five
prevention of chemotherapy-induced premature ovarian failure [2]: did not prevent
